Measurements: patent US9040261B2, “Compounds as L-cystine crystallization inhibitors and uses thereof” (NEW YORK UNIVERSITY, priority 2009, dated 2015)

Test: Bulk crystallization of L-cystine in the presence of additives (mass yield)
Experimental: Alternately, the hexagonal crystals can be obtained by crystallization performed near neutral pH (Sa) The hexagonal form was crystallized from a supersaturated L-cystine solution prepared by adding 70 mg of L-cystine to 100 mL of deionized water (3 mM), and heating under reflux at 100° C. for 20 min with stirring to completely dissolve L-cystine. […] This concentration was used for bulk crystallization studies in the presence of additives so that a measurable amount of bulk crystals could be obtained in a reasonable time. The solution was then allowed to cool slowly with stirring for 75 min. 30 mL aliquots were transferred to separate glass containers, which were then sealed to prevent evaporation and exposure to airborne particulates and stored for 72 hours at room temperature without stirring. […] The crystals retrieved in this manner were used for AFM studies by mounting individual crystals according to the procedure described below.
Various proteins, poly-amino acids, and molecular mimics of L-cystine were examined as additives. The aforementioned procedure for hexagonal platelet crystallization was repeated. […]
L-cystine bulk crystallization was investigated in the presence of various polymers, urinary constituents, fish antifreeze proteins (AFPs), and L-cystine derivatives (i.e. structural mimics of L-cystine), which were analyzed as possible growth inhibitors of hexagonal L-cystine. […]

## Human serum albumin: human serum albumin (fatty-acid free, 99%)
2 mg/L additive, 0.7 g/L L-cystine (pH 6.8), no additive 80, approximate error ±8%
  Yield (%) = (collected mass by filtration, >11 μm)/(total mass added) × 100%: 63%
Polymers and proteins with proximal carboxylate and amine groups, Table 1
  influence on L-cystine growth: negligible influence
